Screening data from PubChem BioAssay.
HCMV NEC inh – inhibitors of HCMV UL50-UL53 nuclear egress complex interaction. inhibition, % (concentration not given with the values). 190,000 compounds, 0.15% hits. HTRF UL50-UL53 interaction, normalized percent inhibition; in the data active = inhibition above about 27%, passing the limit was not always enough
GIV Gai3 FP – inhibitors of GIV GBA-motif binding to rat Galpha-i3; P08753; Galpha-i3/FITC-GIV peptide fluorescence polarization, 90 min; hits give low values; scaled: aluminum fluoride 0%, vehicle 100%; percent of control (FP), % (test concentration not listed); actives 0.42% (n = 210,000); AID 1224905;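 active = replicate mean at 85% of control or lower, very high polarization wells dropped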;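 also: wells of about 15 µL received 100 nL stock; the first replicate is given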
GIV-Gai FP conf – GIV-Galpha-i3 inhibition, FP confirmation. shares compounds with GIV Gai3 FP. FITC-GIV peptide binding to Galphai3, fluorescence polarization; hits give low values. fluorescence polarization, mP at 100 µM. 580 compounds, 38% hits. AID 1259350;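 active = inhibition score of 15 or more, meaning 100 minus mean polarization as percent of control over three replicates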;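 note: lower mP means peptide displaced from Galphai3 so more inhibition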
GIV-Gai AS conf – confirmation of inhibitors of GIV binding to human Galpha-i3; shares compounds with GIV Gai3 FP; AlphaScreen Galphai3-GIV binding, purified proteins, 90 min; hits give low values; AlphaScreen counts at 100 µM; 580 compounds, 39% hits; AID 1259351;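 active = inhibition score at or above a set limit, where the score is 100 minus the three-replicate mean percent of control signal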
* marks the source's active call; other numbers are inactive results; / = not tested or not shown. The sample as a whole holds a higher share of hits than the screen did.

SMILES	HCMV NEC inh	GIV Gai3 FP	GIV-Gai FP conf	GIV-Gai AS conf
COc1ccc(C(C2C(=O)N(c3ccccc3)N=C2C)C2C(=O)N(c3ccccc3)N=C2C)cc1OC (configuration not stated)	/	77.4*	61.6	15958*
COc1ccccc1C(C1C(=O)N(c2ccccc2)N=C1C)C1C(=O)N(c2ccccc2)N=C1C (configuration not stated)	/	114.5	/	/
COc1ccc(/C=C/C(=O)Nc2nc3ccc(S(C)(=O)=O)cc3s2)cc1Br	/	106.2	/	/
COc1ccc(C2=N/C(=C/c3cc4ccccc4n3C(C)=O)C(=O)O2)cc1Br	/	113.0	/	/
CC(=O)n1c(/C=C2/N=C(c3cccs3)OC2=O)cc2ccccc21	-30.6	95.3	77.3	29162
N#CCc1ccno1	-9.7	/	/	/
O=C(O)Cn1c2c(c3ccccc31)CSc1ccc(Cl)cc1-2	/	86.4	71.9	18488*
O=C(O)Cn1c2ccc(Cl)cc2c2nc3ccccc3nc21	-91.4	/	/	/
Cc1cc2n(n1)CCC(=O)N2CCCC(=O)NC(C)c1ccccc1 (configuration not stated)	-15.7	107.3	/	/
CCOC(=O)C1CCCN(C(=O)Cn2c(=O)c3ccccc3n3c(=S)sc(-c4ccccc4F)c23)C1 (configuration not stated)	5.3	103.4	/	/
CC1CCN(C(=O)Cn2c(=O)c3ccccc3n3c(=S)sc(-c4ccccc4F)c23)CC1	-32.6	81.3*	86.6	20249
COc1nonc1NC(C)=O	3.0	/	/	/
CC(=O)NC1=CC(=O)c2nonc2C1=O	85.9*	4.4*	26.4*	7791*
Cc1[nH]n(-c2ccccc2)c(=O)c1C(c1cc(Br)ccc1O)c1c(C)[nH]n(-c2ccccc2)c1=O	/	105.8	/	/
Cc1[nH]n(-c2ccccc2)c(=O)c1C(c1ccc(C#N)cc1)c1c(C)[nH]n(-c2ccccc2)c1=O	/	71.1*	66	33414
Cc1ccc(COc2ccc(C(c3c(C)[nH]n(-c4ccccc4)c3=O)c3c(C)[nH]n(-c4ccccc4)c3=O)cc2)cc1	/	114.5	/	/
Cc1[nH]n(-c2ccccc2)c(=O)c1C(c1cc([N+](=O)[O-])ccc1O)c1c(C)[nH]n(-c2ccccc2)c1=O	/	76.3*	64.3	23681*
CCCCCCOc1ccc(C(c2c(C)[nH]n(-c3ccccc3)c2=O)c2c(C)[nH]n(-c3ccccc3)c2=O)cc1	/	62.3*	66.9	11116*
CCOc1ccc(C(c2c(C)[nH]n(-c3ccccc3)c2=O)c2c(C)[nH]n(-c3ccccc3)c2=O)cc1	/	100.9	/	/
O=C(O)c1ccc(NN=C2CCCCCC2)cc1	-47.4	/	/	/

2 records drawn at random from the list so far, as already listed:
SMILES	HCMV NEC inh	GIV Gai3 FP	GIV-Gai FP conf	GIV-Gai AS conf
Cc1cc2n(n1)CCC(=O)N2CCCC(=O)NC(C)c1ccccc1 (configuration not stated)	-15.7	107.3	/	/
CC(=O)NC1=CC(=O)c2nonc2C1=O	85.9*	4.4*	26.4*	7791*

(further entries)
SMILES	HCMV NEC inh	GIV Gai3 FP	GIV-Gai FP conf	GIV-Gai AS conf
COc1cccc(NC(=O)c2ccc3c(c2)C(=O)N(C2CCCCC2)C3=O)c1	-18.3	100.9	/	/
Cc1ccc(-n2nc(N3CCCN(C(=O)C4CC(=O)N(C5CCCCC5)C4)CC3)ccc2=O)cc1C (configuration not stated)	-29.7	95.9	/	/
Cn1c(=O)c(-c2noc(CCC(=O)Nc3ccccc3Cl)n2)nn(-c2ccccc2)c1=O	-42.4	104.8	/	/
COc1ccc(OC)c(NC(=O)N2CCN(c3nc4ccccc4n4cccc34)CC2)c1	/	98.0	/	/
COc1ccc(Cl)cc1NC(=O)N1CCN(c2nc3ccccc3n3cccc23)CC1	/	83.3*	77.3	24336
CC(C)c1cc(C2CCCN2C(=O)c2cc(C3CCCCC3)no2)no1 (configuration not stated)	/	97.9	/	/
Cc1ccc2c(c1)NC(=O)c1cc(S(=O)(=O)N3CCOCC3)c(Cl)cc1O2	/	105.0	/	/
O=C(CCN1C(=O)/C(=C/c2ccc3c(c2)OCO3)SC1=S)Nc1nc2ccccc2s1	-19.8	72.0*	87.5	35546
O=C(CCN1C(=O)/C(=C/c2ccc3c(c2)OCO3)SC1=S)Nc1nc(-c2ccccc2)cs1	-37.2	106.9	/	/
CC(NC(=O)c1ccco1)c1ccccc1 (configuration not stated)	-14.1	102.5	/	/
CC(C)c1ccc(S(=O)(=O)/N=C2/C=C(Sc3ncn[nH]3)C(=O)c3ccccc32)cc1	/	13.4*	26.1*	3681*
Cc1ccc(S(=O)(=O)Nc2ccc(O)c(Sc3ncn[nH]3)c2)cc1	-27.4	99.8	/	/
Cc1ccc(S(=O)(=O)/N=C2\C=C(Sc3ncn[nH]3)C(=O)c3ccccc32)cc1	45.4	83.1*	54.3*	4566*
Cc1ccc(S(=O)(=O)/N=C2/C=C(Sc3ncn[nH]3)C(=O)c3ccccc32)cc1	31.8	5.9*	15.5*	6564*
Cc1ccc(Nc2nc(Nc3ccc(C)cc3)nc(Sc3ncn[nH]3)n2)cc1	-18.7	/	/	/
O=C1C(Sc2ccccc2)=C/C(=N/S(=O)(=O)c2cccs2)c2ccccc21	/	95.3	/	/

By substructure: those above containing fluorine (2)
SMILES	HCMV NEC inh	GIV Gai3 FP	GIV-Gai FP conf	GIV-Gai AS conf
CCOC(=O)C1CCCN(C(=O)Cn2c(=O)c3ccccc3n3c(=S)sc(-c4ccccc4F)c23)C1 (configuration not stated)	5.3	103.4	/	/
CC1CCN(C(=O)Cn2c(=O)c3ccccc3n3c(=S)sc(-c4ccccc4F)c23)CC1	-32.6	81.3*	86.6	20249
